Data taken from patent publication US20080312157A1.

Tests used:
[1] = molecular target: T1, GIP receptor (RIN), P43219; experiment: GIP RBA (RIN)
T1 chain: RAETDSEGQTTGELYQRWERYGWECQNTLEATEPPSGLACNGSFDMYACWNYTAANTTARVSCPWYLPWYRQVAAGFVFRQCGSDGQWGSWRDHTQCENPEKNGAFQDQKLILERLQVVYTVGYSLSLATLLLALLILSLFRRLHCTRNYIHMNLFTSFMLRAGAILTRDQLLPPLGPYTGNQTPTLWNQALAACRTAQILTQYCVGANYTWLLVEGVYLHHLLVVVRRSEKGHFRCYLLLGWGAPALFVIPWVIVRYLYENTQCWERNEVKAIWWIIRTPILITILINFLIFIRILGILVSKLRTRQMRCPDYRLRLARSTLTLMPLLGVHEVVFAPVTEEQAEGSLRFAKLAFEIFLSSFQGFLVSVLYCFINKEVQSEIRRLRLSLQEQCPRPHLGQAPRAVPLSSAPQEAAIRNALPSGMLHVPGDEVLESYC

[2] = molecular target: T2, GIP receptor (Homo sapiens (Human)), P48546; experiment: cell-based or functional assay
T2 chain: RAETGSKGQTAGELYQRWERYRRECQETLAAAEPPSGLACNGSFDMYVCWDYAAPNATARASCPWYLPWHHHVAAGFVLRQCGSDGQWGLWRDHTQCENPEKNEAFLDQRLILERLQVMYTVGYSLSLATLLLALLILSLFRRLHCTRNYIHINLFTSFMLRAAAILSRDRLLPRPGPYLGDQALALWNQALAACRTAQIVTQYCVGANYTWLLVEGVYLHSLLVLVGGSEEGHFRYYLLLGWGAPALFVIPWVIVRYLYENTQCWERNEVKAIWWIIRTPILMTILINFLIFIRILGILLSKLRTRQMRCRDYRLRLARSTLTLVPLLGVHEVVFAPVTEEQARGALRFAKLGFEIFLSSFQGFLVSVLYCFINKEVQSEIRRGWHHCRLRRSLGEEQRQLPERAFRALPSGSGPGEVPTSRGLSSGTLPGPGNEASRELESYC

Row | Binder | IC50 [1] [nM] | Cyclase [2]
1 | GYAEGTFISDYSIALDKIRQQEFVNWLLAQHPSSGAPPPS (modifications not checked) [0601GIP4292] | 0.17 | 3.46
2 | GYAEGTFISDYSIAMDKIRQQDFVNWLLAQKPSSGAPPPS (modifications not checked) [0601GIP4293] | 0.12 | –
